# Data from PubChem BioAssay AID504441 (Broad Institute, 2011).
# This is a selection; strong and weak results do not stand in their true shares. The source made the active and inactive calls. No stated cut-off is given here; in the data, active means inhibition above about 50%; inactive means the rest.
# Target: Dual specificity tyrosine-phosphorylation-regulated kinase 1A (Rattus norvegicus) (UniProt Q63470)
# Assay: inhibition of Dyrk1A kinase activity – biochemical, single point, plate reader, primary screen (AID 504441);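 further: plate controls were vehicle with enzyme for no effect and no enzyme for full effect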
# Conditions: ADP-Glo luminescence, NFATc1 peptide, at 12.5 µM, hits give high values
row,Structure (SMILES),inhibition
1,CCOC(=O)N1CCC(Nc2ccc(C)cc2)CC1,inactive: 10.5%
2,N/C(=N\O)c1c(N)no[n+]1[O-],inactive: -3.23%
3,O=C(OC1CN2CCC1CC2)C1c2ccccc2C=Cc2ccccc21 (stereo not drawn),inactive: -3.22%
4,COc1cc(C(=O)NCC2(N3CCOCC3)CCCCC2)cc(OC)c1C,inactive: 2.11%
5,COc1ccc(C(=O)NCC2(N3CCOCC3)CCCCC2)cc1OC,inactive: -1.18%
6,CN(C)C1(CNC(=O)c2cccc(C#N)c2)CCCCC1,inactive: 2.06%
7,c1ccc(CN2CCC(Nc3ccccc3)CC2)cc1,inactive: -1.09%
8,CCCN1CCC(Nc2cc(OC)cc(OC)c2)CC1,inactive: -3.13%
9,Cc1cc(N(CCCl)CCCl)ccc1C=O,inactive: 4.39%
10,CC(C)(C)OC(=O)N1CCC(N(C(=O)c2ccccc2)c2ccc(Cl)cc2)CC1,inactive: -0.211%
11,Cc1ccccc1NC1(C#N)CCN(Cc2ccccc2)CC1,inactive: -2.68%
12,CCN1CCC(Nc2cccc(F)c2)CC1,inactive: 3.78%
13,O=C(NCC1(N2CCCCC2)CCCCC1)c1ccco1,inactive: 0.0147%
14,Cn1c(=O)[nH]cc(N(CCCl)CCCl)c1=O,inactive: 3.17%
15,CN(C)c1ccc(C(=O)NCC2(N3CCCCC3)CCCCC2)cc1,inactive: 0.4%
16,COc1cc(OC)cc(C(=O)NCC2(N3CCCCC3)CCCCC2)c1,inactive: -3.63%
17,Cc1ccc(C(=O)NCC2(N3CCCCC3)CCCCC2)o1,inactive: 3%
18,Fc1ccccc1NC1CCN(Cc2ccccc2)CC1,inactive: -7.93%
19,COc1cccc(C(=O)N(c2cc(C)cc(C)c2)C2CCN(C(=O)OC(C)(C)C)CC2)c1,inactive: 0.574%
20,COc1cc(OC)cc(C(=O)NCC2(N3CCOCC3)CCCCC2)c1,inactive: -6.85%
21,CCC(CO)(C(=O)OC1CN2CCC1CC2)c1ccccc1 (stereo not drawn),inactive: 7.27%

row,Structure (SMILES),inhibition
1,CN1CCC(Nc2ccc(Cl)cc2)CC1,inactive: 1.1%
2,CCOc1ncccc1C(=O)NCC1(N2CCOCC2)CCCCC1,inactive: -1.14%
3,CC(C)(C)OC(=O)N1CCC(Nc2ccccc2)CC1,inactive: 18.1%
4,O=C(O)C1(Nc2ccccc2)CCN(Cc2ccccc2)CC1,inactive: -0.6%
5,CCCOc1ccc(C(=O)NCC2(N(C)C)CCCCC2)cc1,inactive: -1.76%
6,O=C(NCC1(N2CCCCC2)CCCCC1)c1ccc(Cl)nc1,inactive: -11.8%
7,Cc1cc(C)cc(N(C(=O)c2ccccc2)C2CCN(C(=O)OC(C)(C)C)CC2)c1,inactive: 2.79%
8,O=C(NCC1(N2CCOCC2)CCCCC1)c1cc2ccccc2o1,inactive: 4.38%
9,O=C(OC1CN2CCC1CC2)C1c2ccccc2Oc2ccccc21 (stereo not drawn),inactive: -0.693%
10,N#CC1(Nc2ccccc2)CCN(Cc2ccccc2)CC1,inactive: -2.04%
11,O=C(NCC1(N2CCCCC2)CCCCC1)c1ccc(Cl)s1,inactive: -9.97%
12,CCOC(=O)N1CCC(Nc2ccc(OC)cc2)CC1,inactive: -49.7%
13,COc1ccc(C(=O)NCC2(N3CCCCC3)CCCCC2)cc1,inactive: -5.24%
14,COc1ccc(C(=O)NCC2(N3CCCCC3)CCCCC2)c(OC)c1OC,inactive: -3.46%
15,CC(C)(C)OC(=O)N1CCC(N(C(=O)c2ccccc2)c2ccc(F)cc2)CC1,inactive: -1.23%
16,O=C(NCC1(N2CCCCC2)CCCCC1)c1ccc(=O)[nH]c1,inactive: -3.38%
17,O=C(NCC1(N2CCCCC2)CCCCC1)c1cccs1,inactive: 14.1%
18,CSc1ccccc1C(=O)NCC1(N2CCCCC2)CCCCC1,inactive: -1.5%
19,COc1cc(C(=O)NCC2(N(C)C)CCCCC2)ccc1OC(F)F,inactive: -3.36%
20,O=C1CCN(Cc2ccccc2)CC1,inactive: -14.8%
21,CCOc1ccc(C)cc1CN(CCCl)CCCl,inactive: 5.27%

row,Structure (SMILES),inhibition
1,O=C(NCC1(N2CCCCC2)CCCCC1)c1ccc(F)cc1,inactive: -8.07%
2,CCCCOc1ccc(C(=O)NCC2(N3CCOCC3)CCCCC2)cc1,inactive: 13.7%
3,O=P1(N(CCCl)CCCl)SCCCS1,inactive: -1.54%
4,CCOC(=O)N1CCC(Nc2ccc(F)cc2)CC1,inactive: 0.253%
5,COc1ccc(NC2CCN(CCc3ccccc3)CC2)c(OC)c1,inactive: 1.52%
6,O=C(NCC1(N2CCCCC2)CCCCC1)c1cccc(C(F)(F)F)c1,inactive: 3%
7,O=C(NCC1(N2CCOCC2)CCCCC1)c1cc(=O)[nH]c2ccccc12,inactive: -13.3%
8,COc1cc(C(=O)NCC2(N3CCCCC3)CCCCC2)ccc1OC(F)F,inactive: 7.42%
9,COc1ccc(NC2CCN(C(=O)OC(C)(C)C)CC2)cc1,inactive: -1.13%
10,CC(C)c1ccc(C(=O)NCC2(N3CCOCC3)CCCCC2)cc1,inactive: 11.8%
11,CN1CCN(CCOC(=O)C(O)(c2ccccc2)c2ccccc2)CC1,inactive: -3.32%
12,O=C(NCC1(N2CCCCC2)CCCCC1)c1ccc(OC(F)F)cc1,inactive: 1.48%
13,N#CC1(Nc2ccccc2)CCN(CCc2ccccc2)CC1,inactive: -7.17%
14,CSc1ccc(C(=O)NCC2(N3CCOCC3)CCCCC2)cc1,inactive: 16.3%
15,O=C(NCC1(N2CCCCC2)CCCCC1)c1cccc([N+](=O)[O-])c1,inactive: 2.86%
16,O=C(NCC1(N2CCCCC2)CCCCC1)c1cncc(Br)c1,inactive: 11.5%
17,CN1CCC(Nc2cccc(F)c2)CC1,inactive: 0.565%
18,CCCOc1ccc(C(=O)NCC2(N(C)C)CCCCC2)cc1OC,inactive: -0.163%
19,COc1ccc(CN(CCCl)CCCl)cc1Cl,inactive: -1.54%
20,CN(C)c1cccc(C(=O)NCC2(N3CCCCC3)CCCCC2)c1,inactive: -5.87%
21,COc1cc(OC)c(C(=O)NCC2(N(C)C)CCCCC2)cc1OC,inactive: -0.21%
